This is an account of results in paper PMC10034064, “Expanding the apelin receptor pharmacological toolbox using novel fluorescent ligands” (Frontiers in Endocrinology, 2023).

Assay [1] concerns the target T1, human apelin receptor (AGTRL1) (Homo sapiens, UniProt P35414).
T1 construct: host or cells: U2OS
T1 sequence (P35414 1-380): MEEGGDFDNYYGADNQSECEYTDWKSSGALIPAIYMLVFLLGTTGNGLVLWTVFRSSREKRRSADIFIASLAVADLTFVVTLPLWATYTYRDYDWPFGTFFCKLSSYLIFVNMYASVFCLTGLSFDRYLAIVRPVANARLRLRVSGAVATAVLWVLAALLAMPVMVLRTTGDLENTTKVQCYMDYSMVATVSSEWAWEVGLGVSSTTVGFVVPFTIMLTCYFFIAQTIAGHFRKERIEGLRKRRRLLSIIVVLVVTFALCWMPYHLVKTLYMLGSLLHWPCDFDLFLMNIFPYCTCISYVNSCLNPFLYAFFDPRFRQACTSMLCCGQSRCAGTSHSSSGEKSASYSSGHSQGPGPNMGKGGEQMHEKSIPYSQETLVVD
The experiment in a line: PathHunter GPCR internalisation assay in U2OS cells. The conditions noted are these: U2OS cells overexpressing human apelin receptor, 90 mins, n = 3; read-out: pD2 (converted). It counts as cell-based.

For assay [2], the target named is T2, apelin receptor (Homo sapiens, UniProt P35414).
T2 sequence (P35414 1-380): T1 sequence (P35414 1-380)
In words: Fluorescent ligand binding (saturation, specificity, competition) in CHO-APLNR cells by high content imaging. On the set-up: host or cells: CHO-K1.

Assay [3] deals with T2, apelin receptor. The experiment in a line: Dynamic mass redistribution assay in CHO-APLNR cells. It counts as cell-based. On the set-up: host or cells: CHO-K1. Particulars: read-out: pD2 (converted).
Assay [4] addresses T2, apelin receptor. In words: Radioligand competition binding against [125I]-apelin-13 in human left ventricle homogenate. Set-up: Surgical samples of human left ventricle (HLV) tissue were obtained with informed consent; from tissue; host or cells: human left ventricle homogenate. The conditions noted are these: competition against 0.1 nM [125I]-apelin-13, human left ventricle homogenate, 1.5 mg/mL protein.

Take `CSCC[C@H](NC(=O)[C@H](CS)NC(=O)[C@H](CCCNC(=N)N)NC(=O)[C@H](CCCNC(=N)N)NC(=O)[C@@H](N)CCC(N)=O)C(=O)N1CCC[C@H]1C(=O)N[C@@H](CC(C)C)C(=O)N[C@@H](Cc1c[nH]cn1)C(=O)N[C@@H](CO)C(=O)N[C@@H](CCCNC(=N)N)C(=O)N[C@H](C(=O)N1CCC[C@H]1C(=O)N[C@@H](Cc1ccccc1)C(=O)N1CCC[C@H]1C(=O)O)C(C)C` [ELA-14, reference compound]: the results for the EC50 (in assay [1]; on apelin receptor [3]) were 2.14 nM and 15.5 nM, respectively. The figures for the inhibitory constant (Ki) at apelin receptor [2] and on apelin receptor [4] were 282 nM and 4.68 nM, respectively.
